Values quoted from earlier work in patent publication US20070281983A1, “Creatine analog prodrugs, compositions and uses thereof” (XenoPort, Inc., priority 2006, published 2007).

Details: ALS

Question: Which extension of survival does the source give for `Nc1nc2ccc(OC(F)(F)F)cc2s1` [riluzole] here?
Answer: The extension of survival was “about three”.
